These are literature values, as cited in patent US5688981A, “Ethylenediaminetriacetic acid and N-acyl ethylenediaminetriacetic acid silver chelating agents and surfactants” (Hampshire Chemical Corp., priority 1996, dated 1997).

This is a selection: effects in other tests are not listed, and their absence says nothing.

One series concerns protein. Particulars: background, other germicidal silver compounds.
The conditions of series [1]: background.

As to silver picrate, in the series on protein, the “concentration with propensity towards protein precipitation” value is 10^-4 M. Moreover, the astringency entry in series [1] is listed as “astringent”.
